Data published in article PMC8869358, “High-Throughput Chemical Screening and Structure-Based Models to Predict hERG Inhibition” (Biology, 2022).
Read-outs that look alike come from different tables or passages of the source.

Amino acid sequences for entries named in this document (tags omitted). A change or cut given only in a name is not applied to a line headed by its entry.
UniProt Q12809: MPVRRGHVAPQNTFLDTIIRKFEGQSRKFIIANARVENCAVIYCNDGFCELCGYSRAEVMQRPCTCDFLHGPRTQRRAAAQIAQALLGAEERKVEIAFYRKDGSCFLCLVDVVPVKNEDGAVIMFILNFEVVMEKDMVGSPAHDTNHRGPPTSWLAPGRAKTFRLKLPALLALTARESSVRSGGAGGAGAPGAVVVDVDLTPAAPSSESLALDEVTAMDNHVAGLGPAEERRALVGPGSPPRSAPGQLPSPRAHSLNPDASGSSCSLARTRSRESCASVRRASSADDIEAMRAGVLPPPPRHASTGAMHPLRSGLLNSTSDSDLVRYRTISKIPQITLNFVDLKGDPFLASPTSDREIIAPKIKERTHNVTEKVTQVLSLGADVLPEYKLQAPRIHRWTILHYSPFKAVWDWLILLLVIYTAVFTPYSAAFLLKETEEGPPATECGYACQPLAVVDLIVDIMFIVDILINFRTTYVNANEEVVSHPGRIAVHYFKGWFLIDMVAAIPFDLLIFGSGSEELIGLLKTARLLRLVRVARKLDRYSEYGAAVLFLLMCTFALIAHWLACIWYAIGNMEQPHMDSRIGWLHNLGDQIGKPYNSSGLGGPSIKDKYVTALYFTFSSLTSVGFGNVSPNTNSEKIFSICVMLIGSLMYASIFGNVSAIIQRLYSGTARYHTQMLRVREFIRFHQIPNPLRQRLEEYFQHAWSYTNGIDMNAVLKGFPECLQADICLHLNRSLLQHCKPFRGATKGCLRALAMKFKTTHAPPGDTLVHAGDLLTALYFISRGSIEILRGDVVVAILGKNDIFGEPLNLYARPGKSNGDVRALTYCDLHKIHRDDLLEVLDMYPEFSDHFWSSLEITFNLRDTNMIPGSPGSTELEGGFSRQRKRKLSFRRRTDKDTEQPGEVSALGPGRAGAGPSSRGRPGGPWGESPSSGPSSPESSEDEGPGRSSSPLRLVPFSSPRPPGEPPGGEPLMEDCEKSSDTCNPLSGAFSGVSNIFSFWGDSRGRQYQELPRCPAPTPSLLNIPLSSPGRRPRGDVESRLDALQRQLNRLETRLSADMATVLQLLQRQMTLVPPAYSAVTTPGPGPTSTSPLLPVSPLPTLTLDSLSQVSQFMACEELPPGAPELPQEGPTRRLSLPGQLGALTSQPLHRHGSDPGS

Biological target: hERG (Homo sapiens, UniProt Q12809)
Conditions: inhibitor

| Substance | (-LOG10(IC50), µM) (human, fluxor ii thallium influx herg) [M] | (-LOG10(IC50), µM) [M] |
| --- | --- | --- |
| Bensulide | 4.385 | – |
| Spiradoline | – | 4.655 |
